Measurements as given in article PMC7135997.

Target: rat cardiac troponin I (rat) (UniProt P23693)
Test: SEC-MALS; complex reconstituted from the three separately purified subunits mixed 1:1:1 in 6 mol/liter urea, dialysed, purified on Resource-Q; Superdex 200 5/150 GL in 50 mmol/liter Tris-HCl (pH 7.4), 5 mM MgCl2, 1 mmol/liter CaCl2, 100 mM NaCl, 100 mmol/liter tris(2-carboxyethyl)phosphine; also characterized by HPLC and ESI-MS

Work on “rat cardiac troponin C (from UniProt Q4PP99 1-161) (natural protein)” yielded a stoichiometry N of 1.
